Measured values reported in US20260200947A1, “FUSED CYCLIC COMPOUNDS AND USE THEREOF” (Jacobio Pharmaceuticals Co., Ltd., priority 2022, published 2026).

Columns and labels:
[1] = system: AsPC-1 cells (K-Ras G12D)

Compound	pIC50 (SW620 cells (K-Ras G12V))	pIC50 [1]
CCc1c(O)c(=O)ccn1CCO (single isomer, unassigned) [Compound 102]	7.57	6.56
C#Cc1c(F)ccc2cc(N)cc(-c3nc4c5c(nc(OC[C@@]67CCCN6C[C@H](F)C7)nc5c3F)N3C(COCC[C@@H]3C)C4=C)c12 (stereo partly drawn) [Compound 128]		7.97

pIC50: −log10 of the molar value.
